According to US8673347B2 (Creabilis Therapeutics S.p.A., priority 2005, dated 2014):

Molecular target: T1, MAP2K3 (Homo sapiens, UniProt P46734)
T1 sequence (P46734 1-347): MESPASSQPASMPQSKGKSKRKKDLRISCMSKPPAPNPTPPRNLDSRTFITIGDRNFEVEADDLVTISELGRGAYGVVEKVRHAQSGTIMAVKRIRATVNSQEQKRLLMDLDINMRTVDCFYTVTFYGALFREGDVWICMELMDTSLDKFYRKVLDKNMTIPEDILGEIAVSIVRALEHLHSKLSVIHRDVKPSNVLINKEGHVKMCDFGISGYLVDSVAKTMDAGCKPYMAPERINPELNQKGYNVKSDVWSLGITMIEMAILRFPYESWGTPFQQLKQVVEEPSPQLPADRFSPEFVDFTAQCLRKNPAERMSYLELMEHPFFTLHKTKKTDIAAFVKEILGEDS
Test: Kinase inhibition profile
Assay type: biochemical
Details: read-out: inhibitory activity

Compound: COC(=O)[C@]1(O)C[C@@H]2O[C@@]1(C)n1c3ccccc3c3c4c(c5c6ccccc6n2c5c31)C(=O)NC4 [Compound K-252a, K-252a]
- inhibition at 0.2 µM: > 90%
